Test results published in patent US20050192282A1, “Chemokine inhibiting piperazine derivatives and their use to treat multiple myeloma” (Schering Aktiengesellschaft, priority 2004, published 2005).

Key:
[1] = test system: adhesion of MM.1S cells to ST2 marrow stromal cells; assay: Adhesion of myeloma cells to stromal cells; assay type: cell-based, human MM.1S / murine ST2
[2] = test system: murine IL-6 production by ST2 stromal cells; assay: IL-6 production by ST2 stromal cells in contact with MM.1S cells (murine IL-6 ELISA); assay type: cell-based
[3] = test system: osteoclast formation in murine bone marrow cultures
[4] = test system: β1 integrin mRNA expression in MM.1S human Myeloma cells; assay: RT-PCR analysis of β1 integrin mRNA expression in MM.1S myeloma cells cocultured with ST2 stromal cells; assay type: cell-based

For `C[C@@H]1CN(Cc2ccc(F)cc2)CCN1C(=O)COc1ccc(Cl)cc1NC(N)=O` [BX471, (2R)-1-((4-chloro-2-(ureido)phenoxy)methyl)carbonyl-2-methyl-4-(4-fluorobenzyl)piperazine], the “Adhesion of MM.1S cells to ST2 cells” value [1] was “significantly decreased”, the “adhesion of MM.1S cells to ST2 marrow stromal cells” value [1] was “significantly inhibited” and the “IL-6 production by ST2 marrow stromal cells in contact with MM.1S myeloma cells” value [2] was “significantly inhibited”. For the same compound, the “Murine TRAP (+) OCL formation” value [3] was “dose-dependently inhibited”, the “osteoclast formation stimulated with MIP-1A” value [3] was “significantly inhibited” and the “β1 integrin mRNA expression increased by rhMIP-1a” value [4] was “significantly decreased; also recorded: downregulated”.

Entries after “also recorded” stand apart in the source; their conditions may differ.
